# Binding of CDR-mutated scFvs to a peptide of the spike HR2 region

Binding partner: SARS-CoV-2 spike HR2 peptide, sequence PDVDLGDISGINAS.

Parent scFv Ab-91: VL joined to VH by the linker GGGGSGGGGSGGGGS. Changes lie in the heavy chain CDRs alone.
VL: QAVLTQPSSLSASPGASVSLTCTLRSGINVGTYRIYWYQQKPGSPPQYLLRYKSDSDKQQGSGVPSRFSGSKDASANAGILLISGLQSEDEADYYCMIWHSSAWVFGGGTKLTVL
VH: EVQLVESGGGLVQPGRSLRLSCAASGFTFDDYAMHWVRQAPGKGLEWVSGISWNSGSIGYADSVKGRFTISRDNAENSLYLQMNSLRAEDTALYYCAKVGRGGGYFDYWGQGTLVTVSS

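Phage display of a naive human antibody library on the peptide gave the parent. Library AAYL51 holds single substitutions and randomly drawn double and triple substitutions in the CDRs. The assay is AlphaSeq: two haploid yeast populations carry antibody and antigen on their surface. Mating (16 h, 30 °C) was followed by selection of diploids and sequencing of their barcodes. Scores were corrected for input abundance and mapped to Kd with protein pairs of known affinity run in the same pool. Each pool was mated in three replicate cultures.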

Variants are written as CDR1, CDR2 and CDR3 of the heavy chain (limits as in the source). Parent: GFTFDDYAMH, GISWNSGSIGYADSVK, VGRGGGYFDY. This list gathers variants with a substitution at F27 (VH, numbered from residue 1). Values are apparent Kd, the geometric mean of the replicates that gave a signal; lower means stronger binding. "no signal" means that the variant was in the library but no mating with the target was seen in any replicate; the authors take this as a sign of poor binding, and no number exists.

| CDR-H1 | CDR-H2 | CDR-H3 | Kd | detected | empty controls |
|---|---|---|---|---|---|
| GNTFDDYAMH | GISWYSGSIGYADSVK | VGRGGFYFDY | no signal | 0 of 3 | 1 of 9 |
| GCVFDDYAMC | GISWNSGSIGYADSVK | VGRGGGYFDY | 160 µM | 1 of 3 | 3 of 9 |
| GYCFDDYAMH | GISWNSGSIGYADSVK | VGRGLGYFDY | 2.1 µM | 3 of 3 | 0 of 9 |
| GNTFDDYAMH | GISWNSGSIMYADSVK | VGRGVGYFDY | 93 µM | 2 of 3 | 2 of 9 |
| GCTFDDYAQH | GISWNSGSIGYADSVK | VGRGGGYFEY | 46 µM | 2 of 3 | 3 of 9 |
| GQTDDDYAMH | GISWNSGSIGYADSVK | VGWGGGYFDY | no signal | 0 of 3 | 1 of 9 |
| GNTFDDYAMH | GIAWNSGSIHYADSVK | VGRGGGYFDY | no signal | 0 of 3 | 0 of 9 |
| GDAFDDYAMH | GISWNSGSIGSADSVK | VGRGGGYFDY | no signal | 0 of 3 | 4 of 9 |
| GSTFADYAMH | GISWNSGSIGWADSVK | VGRGGGYFDY | no signal | 0 of 3 | 1 of 9 |
| GDLFDDYAMH | GISWNQGSIGYADSVK | VGRGGGYFDY | 48 µM | 3 of 3 | 0 of 9 |
| GITFDDYAMH | GISWNSGSIGYADSVK | VGRGGGYVPY | no signal | 0 of 3 | 0 of 9 |
| GDTFDCYAMH | GISWNSGKIGYADSVK | VGRGGGYFDY | no signal | 0 of 3 | 2 of 9 |
| DTTFDDYAMH | GISWNSGSIGYADSVK | VGLGGGYFDY | no signal | 0 of 3 | 0 of 9 |
| GWTFDDYAMH | GISWNSGSIGYADSVK | VGRGEGYFDY | no signal | 0 of 3 | 1 of 9 |
| GATFDDYYMH | GIHWNSGSIGYADSVK | VGRGGGYFDY | 44 µM | 2 of 3 | 2 of 9 |
| GSTFDDYAMH | GISWNSGSINYADSVS | VGRGGGYFDY | 210 µM | 1 of 3 | 2 of 9 |
| GKTFDDYAMH | FISWNSGSIGYADSVK | VGRGGGYFDY | no signal | 0 of 3 | 0 of 9 |
| GLTFDDYLYH | GISWNSGSIGYADSVK | VGRGGGYFDY | no signal | 0 of 3 | 0 of 9 |
| GITFDCYAMH | GISWNSGSIGYADSVK | VGEGGGYFDY | no signal | 0 of 3 | 2 of 9 |
| GSTFDDYAMH | GISWNSGSIGYADSVK | VGRRKGYFDY | no signal | 0 of 3 | 1 of 9 |
| GWTFDDYAMH | GISWHSGSIWYADSVK | VGRGGGYFDY | 1.4 mM | 1 of 3 | 5 of 9 |
| GVTFDDYVMH | GISWNSGSIGYADSVK | VGRGGGIFDY | 2.3 µM | 3 of 3 | 5 of 9 |
| GQTFDDYAMH | GISWNSGSIGMADWVK | VGRGGGYFDY | no signal | 0 of 3 | 0 of 9 |
| GKTFDDYAMH | GISWNSGSIGYFDSVL | VGRGGGYFDY | 12 µM | 1 of 3 | 0 of 9 |
| GITFDDYAMH | GISWNYGSIGYADSVK | VGRGGGYFDY | 1.8 µM | 1 of 3 | 2 of 9 |
| GQTFDDYAMH | GISWNSGSIGYTDSVK | VNRGGGYFDY | no signal | 0 of 3 | 0 of 9 |
| GRTFDDYAMH | GISWNSGSIGYARSVK | VGRGGGCFDY | no signal | 0 of 3 | 2 of 9 |
| GATFDDYAMH | KISWNSGSIGYADSVK | VGRKGGYFDY | no signal | 0 of 3 | 0 of 9 |
| GMTFDDYAMH | GISWNSGSIGYADSVK | VGRGGGNFDY | no signal | 0 of 3 | 2 of 9 |
| GRYFDDYAMH | GISWKSGSIGYADSVK | VGRGGGYFDY | no signal | 0 of 3 | 0 of 9 |
| GNTFDDYAMH | GISWWSGSIGYADSVK | VGRRGGYFDY | no signal | 0 of 3 | 1 of 9 |
| GITFDQYAMH | GISWNIGSIGYADSVK | VGRGGGYFDY | no signal | 0 of 3 | 1 of 9 |
| GHTFDDYHMH | GISWNSPSIGYADSVK | VGRGGGYFDY | no signal | 0 of 3 | 0 of 9 |
| GGTFDDYAMH | GISWNSGSIGYADSVK | IGRGGGYFPY | no signal | 0 of 3 | 1 of 9 |
| GKTFDDYAMH | GISWNSGSIGYADQVK | VGRGGGYFDY | no signal | 0 of 3 | 1 of 9 |
| GNTFDDYAPH | GNSWNSGSIGYADSVK | VGRGGGYFDY | no signal | 0 of 3 | 0 of 9 |
| GWTFDDYAKH | GISWNSGSIGYADSVK | VGRGPGYFDY | no signal | 0 of 3 | 0 of 9 |
| GRTFFDYAMH | GNSWNSGSIGYADSVK | VGRGGGYFDY | 73 µM | 2 of 3 | 3 of 9 |
| GVTFDDYAMH | GISWNTGSIGYADSVK | VCRGGGYFDY | 75 µM | 2 of 3 | 5 of 9 |
| GPTFDDYAMH | GISWNSGSIGYSDSVK | SGRGGGYFDY | 92 µM | 1 of 3 | 6 of 9 |
| GRTFDDYAMH | GISWNDGSIGYFDSVK | VGRGGGYFDY | no signal | 0 of 3 | 1 of 9 |
| GQTFDDYAMH | GISWDSGIIGYADSVK | VGRGGGYFDY | no signal | 0 of 3 | 0 of 9 |
| GDTFDDYAMH | GITWNSGSIGYADSVK | VGRGGGYFVY | 120 µM | 1 of 3 | 2 of 9 |
| GWTFDDYAMT | GISWNSGSIGYADSVK | VGRGGGYFDY | no signal | 0 of 3 | 0 of 9 |
| GHTFDDYAMH | GISWNSGSIAYADSEK | VGRGGGYFDY | no signal | 0 of 3 | 0 of 9 |
| GGTFDDYAKH | GISWNSGEIGYADSVK | VGRGGGYFDY | no signal | 0 of 3 | 4 of 9 |
| GPGFDDYAMH | GISWNSGSIGYADSPK | VGRGGGYFDY | no signal | 0 of 3 | 0 of 9 |
| GVTFDDYAMH | GISWNSGWIGYADSVK | VGGGGGYFDY | no signal | 0 of 3 | 2 of 9 |
| GGTFDDWAMR | GISWNSGSIGYADSVK | VGRGGGYFDY | 9.2 µM | 1 of 3 | 2 of 9 |
| GLTFDDYAMH | GISWNSGMIGYADSVK | VGRGGSYFDY | 650 µM | 1 of 3 | 1 of 9 |
| GLTFDDYAMH | AISWNSGSIGYADSVK | VGRGGGYFDY | no signal | 0 of 3 | 4 of 9 |
| GATFDDYAMH | GISWNSGSIGYADSVK | VGRLGGYFNY | 28 µM | 1 of 3 | 0 of 9 |
| GHTFDDYAMH | GISWNSGCIGYADSVK | VGRGGGYADY | 7.0 µM | 2 of 3 | 2 of 9 |
| GCTFDDYAMH | GISWSSGSIGYADSVK | VMRGGGYFDY | no signal | 0 of 3 | 0 of 9 |
| GMTFDDYAMH | GISNNSGSIGYADSVK | VGRGGGAFDY | 2.3 µM | 1 of 3 | 0 of 9 |
| GDTFDDYAMH | GISWNSGSIGYADSVK | VGRGGGYFHY | 630 nM | 3 of 3 | 5 of 9 |
| GMTFDDYPMH | GISWNSGSIGYADSEK | VGRGGGYFDY | 220 µM | 2 of 3 | 1 of 9 |
| GDTFDDYAMH | GISWNSGSIGYPDSVK | VGRGQGYFDY | no signal | 0 of 3 | 0 of 9 |
| GGKFDDYAMH | GISWNSGSIGYADSVK | VGDGGGYFDY | 60 nM | 3 of 3 | 5 of 9 |
| GRTFDDYATH | GIAWNSGSIGYADSVK | VGRGGGYFDY | 6.6 µM | 2 of 3 | 1 of 9 |
| GPTFDDYAMH | GISWNSGSIGYADSVK | VQRGGGYFDY | 31 µM | 1 of 3 | 0 of 9 |
| GETFDDYAMH | GISWNSNSIGYADSVK | VGRGGGYFCY | 270 µM | 2 of 3 | 5 of 9 |
| GYVFDDYAMH | GISWNSGSIGYADSVK | VGRGGGYFDY | no signal | 0 of 3 | 0 of 9 |
| GMTFDDYFMH | GISWNAGSIGYADSVK | VGRGGGYFDY | no signal | 0 of 3 | 1 of 9 |
| GCTFDDYAMH | GISWNSGSLGYADSVK | VGRGGGYFDY | 540 µM | 1 of 3 | 2 of 9 |

For reference, the parent read 72 nM as the reference entry and 7.5 nM as a member of this library. Three control strains display no target. For library AAYL51, 21% of the pairings with them gave a signal, with a median of 34 µM and one signal in twenty below 1.8 µM, so weak values seen in few replicates may be background. For each scFv, signals with the empty controls are counted beside the result.

Source: Engelhart et al. 2022 (doi:10.1038/s41597-022-01779-4), MIT Lincoln Laboratory and A-Alpha Bio; data file from the FLAb repository.